Counter-ions that a name gives are not always drawn. Like-named read-outs stand apart in the source and are kept apart here.
## CC(NC(C)(C)C)C(=O)c1cccc(Cl)c1 (stereo not shown) [Bupropion HBr, bupropion hydrobromide]
Example 1 tablet, 0.1N HCl, 15 hr
  % Released: 102%
Example 1 tablet, 0.1N HCl, 16 hr
  % Released: 102%
Example 2 tablet, 0.1N HCl, 16 hr
  % Released: 102%
Example 2 tablet, pH 4.5 acetate buffer, 12 hr
  % Released: 102%
Example 3 tablet, 0.1N HCl, 8 hr
  % Released: 102%
Example 3 tablet, pH 4.5 acetate buffer, 16 hr
  % Released: 102%
Example 10 tablet, 0.1N HCl, 12 hr
  % Released: 102%
Example 11 tablet, 0.1N HCl, 16 hr
  % Released: 102%
Example 17 tablet, 0.1N HCl, 12 hr
  % Released: 102%

## CC(NC(C)(C)C)C(=O)c1cccc(Cl)c1 (stereo not shown) [Bupropion HCl, bupropion hydrochloride]
Example 18 tablet, 0.1N HCl, 8 hr
  % Released: 101.69%
